Molecular target: T1, BuChE (human, purified from) (Homo sapiens, UniProt P06276)
T1 construct: BuChE (human, purified from erythrocytes); from tissue
Experiment: In vitro inhibition of BuChE, modified Ellman procedure
Format: biochemical
Conditions: purified human butyrylcholinesterase (plasma); mean of two or three independent experiments; read-out: hBuChE IC50

By UniProt entry, the sequences of proteins in these tests, tags left out. Residues count along the entry.
UniProt P06276, 29-602: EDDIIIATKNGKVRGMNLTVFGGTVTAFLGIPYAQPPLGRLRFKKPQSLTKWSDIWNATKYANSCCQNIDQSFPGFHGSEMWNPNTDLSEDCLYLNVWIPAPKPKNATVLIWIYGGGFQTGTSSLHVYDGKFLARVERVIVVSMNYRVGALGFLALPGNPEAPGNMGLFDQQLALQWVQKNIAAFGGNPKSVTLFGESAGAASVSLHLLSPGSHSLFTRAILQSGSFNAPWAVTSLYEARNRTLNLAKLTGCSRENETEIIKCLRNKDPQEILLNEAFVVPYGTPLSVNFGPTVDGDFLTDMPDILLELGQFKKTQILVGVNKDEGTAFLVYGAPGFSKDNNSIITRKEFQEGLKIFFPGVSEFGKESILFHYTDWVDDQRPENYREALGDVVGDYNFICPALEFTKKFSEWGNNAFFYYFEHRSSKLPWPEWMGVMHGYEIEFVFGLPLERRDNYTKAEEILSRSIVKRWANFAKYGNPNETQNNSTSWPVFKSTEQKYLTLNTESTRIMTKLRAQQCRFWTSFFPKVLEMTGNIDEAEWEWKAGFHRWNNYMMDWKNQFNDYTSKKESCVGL

CCN(C)C(=O)Oc1cccc([C@H](C)N(C)C)c1 [Rivastigmine, rivastigmine, reference compound]
IC50: 179 nM

From patent US20100256229A1, “COMPOSITIONS OF CHOLINESTERASE INHIBITORS” (priority 2009, published 2010)
